The target of assay [1] is Acetylcholinesterase (Homo sapiens) (UniProt P22303). Nature of the assay: Reactivation of tabun induced inhibition of recombinant human AChE assessed as second-order reactivation rate constant using ATCh as substrate incubated for 30 mins by Ellman's method. Particulars: filed as activator. In general terms: Ellman's reagent forms a yellow product with free thiols.
Assay [2] shares this target. Nature of the assay: Reactivation of tabun induced inhibition of recombinant human AChE assessed as maximal first-order reactivation rate constant using ATCh as substrate incubated for 30 mins by Ellman's method. Particulars: filed as activator.
For assay [3] the target is unchanged. Nature of the assay: Reactivation of tabun induced inhibition of recombinant human AChE assessed as dissociation constant using ATCh as substrate incubated for 30 mins by Ellman's method. Conditions: filed as activator.
The nature of assay [4]: Antioxidant activity assessed as FRAP radical activity at 1 mM by FRAP assay.
In assay [5] the target is Acetylcholinesterase (Homo sapiens) (UniProt P22303). Nature of the assay: Reactivation of tabun induced inhibition of AChE in human erythrocytes assessed as dissociation constant using ATCh as substrate by Ellman's method. Conditions: Erythrocyte, filed as activator.
Assay [6] addresses Cholinesterase (Homo sapiens) (UniProt P06276). Nature of the assay: Reactivation of sarin induced inhibition of BChE in human plasma assessed as dissociation constant using ATCh as substrate incubated for 30 mins by Ellman's method.
Assay [7] shares this target. Nature of the assay: Reactivation of tabun induced inhibition of BChE in human plasma assessed as first-order reactivation rate constant using ATCh as substrate incubated for 30 mins by Ellman's method. Conditions: filed as activator.
Assay [8] has the same target. Nature of the assay: Reactivation of VX induced inhibition of BChE in human plasma assessed as dissociation constant using ATCh as substrate incubated for 30 mins by Ellman's method. Conditions: filed as activator.
Assay [9] shares this target. Nature of the assay: Reactivation of tabun induced inhibition of BChE in human plasma assessed as second-order rate constant using ATCh as substrate incubated for 30 mins by Ellman's method. Particulars: filed as activator.
Assay [10] has the same target. Nature of the assay: Reactivation of tabun induced inhibition of BChE in human plasma assessed as dissociation constant using ATCh as substrate incubated for 30 mins by Ellman's method. Conditions: filed as activator.
The target is the same in assay [11]. Nature of the assay: Reactivation of sarin induced inhibition of BChE in human plasma assessed as second-order rate constant using ATCh as substrate incubated for 30 mins by Ellman's method. Particulars: filed as activator.
The target is the same in assay [12]. Nature of the assay: Reactivation of cyclosarin induced inhibition of BChE in human plasma assessed as second-order rate constant using ATCh as substrate incubated for 30 mins by Ellman's method. Conditions: filed as activator.
For assay [13] the target is unchanged. Nature of the assay: Reactivation of sarin induced inhibition of BChE in human plasma assessed as first-order reactivation rate constant using ATCh as substrate incubated for 30 mins by Ellman's method. Particulars: filed as activator.
The target is the same in assay [14]. Nature of the assay: Reactivation of VX induced inhibition of BChE in human plasma assessed as first-order reactivation rate constant using ATCh as substrate incubated for 30 mins by Ellman's method. Particulars: filed as activator.
Assay [15] shares this target. Nature of the assay: Reactivation of VX induced inhibition of BChE in human plasma assessed as second-order rate constant using ATCh as substrate incubated for 30 mins by Ellman's method. Particulars: filed as activator.
Assay [16] shares this target. Nature of the assay: Reactivation of cyclosarin induced inhibition of BChE in human plasma assessed as dissociation constant using ATCh as substrate incubated for 30 mins by Ellman's method. Conditions: filed as activator.
In assay [17] the target is Acetylcholinesterase (Homo sapiens) (UniProt P22303). Nature of the assay: Reactivation of VX induced inhibition of recombinant human AChE assessed as dissociation constant using ATCh as substrate incubated for 30 mins by Ellman's method. Particulars: filed as activator.
For assay [18], the target named is Cholinesterase (Homo sapiens) (UniProt P06276). Nature of the assay: Reactivation of cyclosarin induced inhibition of BChE in human plasma assessed as first-order reactivation rate constant using ATCh as substrate incubated for 30 mins by Ellman's method. Particulars: filed as activator.
The target in assay [19] is Acetylcholinesterase (Homo sapiens) (UniProt P22303). Nature of the assay: Reactivation of sarin induced inhibition of recombinant human AChE assessed as second-order reactivation rate constant using ATCh as substrate incubated for 30 mins by Ellman's method. Particulars: filed as activator.
Assay [20] has the same target. Nature of the assay: Reactivation of cyclosarin induced inhibition of recombinant human AChE assessed as maximal first-order reactivation rate constant using ATCh as substrate incubated for 30 mins by Ellman's method. Conditions: filed as activator.
Assay [21] shares this target. Nature of the assay: Reactivation of sarin induced inhibition of recombinant human AChE assessed as dissociation constant using ATCh as substrate incubated for 30 mins by Ellman's method.
For assay [22] the target is unchanged. Nature of the assay: Reactivation of VX induced inhibition of recombinant human AChE assessed as second-order reactivation rate constant using ATCh as substrate incubated for 30 mins by Ellman's method. Particulars: filed as activator.
Assay [23] has the same target. Nature of the assay: Reactivation of VX induced inhibition of recombinant human AChE assessed as maximal first-order reactivation rate constant using ATCh as substrate incubated for 30 mins by Ellman's method. Particulars: filed as activator.
Assay [24] shares this target. Nature of the assay: Reactivation of cyclosarin induced inhibition of recombinant human AChE assessed as dissociation constant using ATCh as substrate incubated for 30 mins by Ellman's method. Conditions: filed as activator.
The target is the same in assay [25]. Nature of the assay: Reactivation of cyclosarin induced inhibition of recombinant human AChE assessed as second-order reactivation rate constant using ATCh as substrate incubated for 30 mins by Ellman's method. Conditions: filed as activator.
The nature of assay [26]: Antioxidant activity assessed as FRAP radical activity at 50 uM by FRAP assay.

Chains of the proteins cited; added tags and fusions are not shown. Lines headed by an entry give the natural chain unless they say otherwise; changes in a name come on top.
UniProt P22303: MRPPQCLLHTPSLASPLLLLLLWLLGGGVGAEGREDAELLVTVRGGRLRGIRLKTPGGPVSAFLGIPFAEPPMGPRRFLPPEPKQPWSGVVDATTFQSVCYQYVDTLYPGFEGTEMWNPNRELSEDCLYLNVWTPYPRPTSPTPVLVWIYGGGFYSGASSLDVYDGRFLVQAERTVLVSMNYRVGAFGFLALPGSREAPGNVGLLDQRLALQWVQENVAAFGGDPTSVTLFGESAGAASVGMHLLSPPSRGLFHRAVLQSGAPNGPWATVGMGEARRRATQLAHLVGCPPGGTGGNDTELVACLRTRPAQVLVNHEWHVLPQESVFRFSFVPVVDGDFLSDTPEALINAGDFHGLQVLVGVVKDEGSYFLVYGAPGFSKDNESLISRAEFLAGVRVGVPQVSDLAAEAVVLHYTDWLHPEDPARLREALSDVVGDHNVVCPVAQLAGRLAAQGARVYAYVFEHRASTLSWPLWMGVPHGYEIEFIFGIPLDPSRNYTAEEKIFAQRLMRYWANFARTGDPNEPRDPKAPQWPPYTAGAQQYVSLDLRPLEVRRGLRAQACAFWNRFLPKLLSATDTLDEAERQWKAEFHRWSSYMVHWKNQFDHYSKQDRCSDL
UniProt P06276, whole entry, looked up: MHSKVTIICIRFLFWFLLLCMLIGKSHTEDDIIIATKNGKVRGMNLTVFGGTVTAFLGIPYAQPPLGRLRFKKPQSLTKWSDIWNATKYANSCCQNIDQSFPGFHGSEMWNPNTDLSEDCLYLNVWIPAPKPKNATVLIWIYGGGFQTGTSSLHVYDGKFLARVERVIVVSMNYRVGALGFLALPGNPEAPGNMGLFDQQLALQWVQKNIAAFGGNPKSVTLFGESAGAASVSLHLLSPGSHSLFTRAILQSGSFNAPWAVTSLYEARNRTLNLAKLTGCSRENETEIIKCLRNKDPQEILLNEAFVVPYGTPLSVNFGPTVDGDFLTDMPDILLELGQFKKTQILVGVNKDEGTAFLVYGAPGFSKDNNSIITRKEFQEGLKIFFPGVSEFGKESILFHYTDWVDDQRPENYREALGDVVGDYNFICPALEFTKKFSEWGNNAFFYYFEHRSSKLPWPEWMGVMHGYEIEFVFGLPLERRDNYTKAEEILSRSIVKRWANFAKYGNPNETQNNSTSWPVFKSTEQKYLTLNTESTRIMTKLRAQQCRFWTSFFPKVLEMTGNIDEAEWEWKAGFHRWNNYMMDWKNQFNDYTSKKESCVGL

We go through eleven compounds from ChEMBL document CHEMBL5113391, “Halogen substituents enhance oxime nucleophilicity for reactivation of cholinesterases inhibited by nerve agents” (2022).

For the compound `NC(=O)c1cc[n+](C/C=C/C[n+]2ccc(/C=N/O)c(F)c2)cc1`, the K was found to be 5.62 M⁻¹ s⁻¹ in assay [1] and 0.026 min⁻¹ in [2]. For the same compound, in assay [3], the Kdiss was 76 µM.
`Cc1cc(C(C)(C)C)c(O)c(C(C)(C)C)c1`: the Activity in assay [4] was found to be 2.7 mM.
With `NC(=O)c1cc[n+](C/C=C/C[n+]2ccc(/C=N/O)cc2)cc1`, the Kdiss in assay [5] worked out at 70 µM.
Turning to `NC(=O)c1cc[n+](COC[n+]2ccccc2/C=N/O)cc1`, the Kdiss in [6] (filed as activator) amounted to 270 µM; in assay [8] it was 370 µM; in [10] it was 1800 µM. The K in assay [7] worked out at 0.0016 min⁻¹; in [9], 0.015 M⁻¹ s⁻¹; in assay [11], 150 µM; in assay [12], 780 µM; in assay [13], 0.04 min⁻¹; in assay [14], 0.12 min⁻¹. For the same compound, the K in assay [15] was 1.92 M⁻¹ s⁻¹.
In the case of `NC(=O)c1cc[n+](CCC[n+]2ccc(/C=N/O)c(F)c2)cc1`, the Kdiss was over 100 µM in assay [6]; 598 µM in assay [16]; 734 µM in [17]; over 500 µM in [21]; 29 µM in assay [3]; 238 µM in assay [24]. The K in assay [18] was determined as 0.026 min⁻¹; in assay [19], 5.47 M⁻¹ s⁻¹; in assay [1], 3.1 M⁻¹ s⁻¹; in [20], 0.41 min⁻¹; in assay [11], 24.4 µM; in [2] it was 0.0055 min⁻¹. The K in assay [22] was found to be 6.47 M⁻¹ s⁻¹; in [12] it was 44 µM; in assay [23], 0.29 min⁻¹; in assay [15], 86 µM; in assay [25], 28.3 M⁻¹ s⁻¹.
`O/N=C/c1cc[n+](CCC[n+]2ccc(/C=N/O)cc2)cc1`: the K in [7] was 0.0036 min⁻¹; in assay [9], 0.233 M⁻¹ s⁻¹; in assay [1], 12.1 M⁻¹ s⁻¹; in assay [2] it was 0.094 min⁻¹. Also, the Kdiss worked out at 250 µM in assay [10] and 135 µM in assay [3].
In the case of `Cc1c(C)c2c(c(C)c1O)CCC(C)(C(=O)O)O2` (configuration not stated), in assay [26], the Activity came out at 2.03 mM.
As to `C[n+]1ccccc1C=NO`, the Kdiss in [6] (filed as activator) amounted to 2400 µM; in assay [16] it was 1200 µM; in assay [8], 2680 µM; in assay [10] it was 1270 µM. In addition, the K is 0.0011 min⁻¹ in assay [7]; 0.015 M⁻¹ s⁻¹ in [9]; 0.08 min⁻¹ in assay [18]; 75 µM in assay [11]; 65 µM in assay [12]; 0.18 min⁻¹ in assay [13]. Besides, the K in [14] worked out at 0.09 min⁻¹; in assay [15], 35 µM.
Take `NC(=O)c1cc[n+](CCC[n+]2cc(Cl)c(/C=N/O)c(Cl)c2)cc1`: the Kdiss in assay [6] is over 100 µM; in [16], 320 µM; in assay [8], 490 µM; in assay [10] it was 480 µM. The K in assay [7] was found to be 0.028 min⁻¹; in [9] it was 1 M⁻¹ s⁻¹; in [18] it was 0.08 min⁻¹; in assay [11], 360 µM; in [12], 240 µM; in assay [14], 0.07 min⁻¹. Further, the K in assay [15] was found to be 2.5 M⁻¹ s⁻¹.
For the compound `NC(=O)c1cc[n+](C/C=C/C[n+]2cc(F)c(/C=N/O)c(F)c2)cc1`, in [4], the Activity came to 1.6 mM.
In the case of `NC(=O)c1cc[n+](CCC[n+]2ccc(/C=N/O)cc2)cc1`, the Kdiss in assay [6] is over 100 µM; in assay [16], 652 µM; in assay [10] it was 1600 µM. The K in assay [7] was found to be 0.0035 min⁻¹; in assay [9], 0.0367 M⁻¹ s⁻¹; in assay [18], 0.039 min⁻¹; in assay [11] it was 116 µM; in assay [12], 60 µM; in assay [15] it was 330 µM.
